Species: Homo sapiens
Assay: Selectivity index, ratio of IC50 for human MAOA to IC50 for human MAOB
Summary of the method: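 Selectivity index was computed as IC50 (MAO-A)/IC50 (MAO-B), each IC50 being the mean of three experiments.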

| SMILES | Ratio IC50 |
| --- | --- |
| Brc1ccc(COc2cccc(Br)c2)cc1 | > 286 |
| O=Cc1cccc(OCc2ccc(Br)cc2)c1 | 147 |

— ChEMBL document CHEMBL4138066, “Synthesis and evaluation of small molecules bearing a benzyloxy substituent as novel and potent monoamine oxidase inhibitors” (Medchemcomm, 2017)
